Experimental data as given in patent US5461059A, “Derivatives of terbutylphenyl-1-amino-4-hydroxybutane their preparation processes and the pharmaceutical compositions containing them” (priority 1990, dated 1995).

By UniProt entry, the sequences of proteins in these tests, tags left out. Where a name states a change or a piece, a line headed by the entry shows the natural chain unless it says otherwise.
UniProt P08482: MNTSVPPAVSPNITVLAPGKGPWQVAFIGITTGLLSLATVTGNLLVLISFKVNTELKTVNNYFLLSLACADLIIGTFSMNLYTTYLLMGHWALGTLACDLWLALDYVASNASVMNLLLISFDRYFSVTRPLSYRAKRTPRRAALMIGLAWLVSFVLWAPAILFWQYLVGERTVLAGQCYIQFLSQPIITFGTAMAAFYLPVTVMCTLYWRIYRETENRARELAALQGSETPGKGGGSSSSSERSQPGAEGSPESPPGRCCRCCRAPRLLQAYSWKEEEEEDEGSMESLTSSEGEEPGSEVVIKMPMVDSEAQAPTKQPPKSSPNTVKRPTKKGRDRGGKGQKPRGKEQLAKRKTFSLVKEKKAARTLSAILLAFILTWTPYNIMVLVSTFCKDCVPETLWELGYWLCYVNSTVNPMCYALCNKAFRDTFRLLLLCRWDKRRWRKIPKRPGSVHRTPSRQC

Target: T1, Muscarinic M1 (Rattus norvegicus, UniProt P08482)
T1 construct: membranar receptors of various rats organs; from tissue; host or cells: rat cortex, striatum and hippocampus (pool)
Test: Affinity for muscarinic M1 ([3H]-pirenzepine)
Type: binding
Conditions: versus Atropin

COc1ccc(CN(CCN(C)C)c2ccccn2)cc1 [Mepyramine]
affinity for muscarinic M1 sites, times weaker than Atropin: about 1000 times weaker
